# Measurements taken from PMC2131780, “A Tale of Switched Functions: From Cyclooxygenase Inhibition to M-Channel Modulation in New Diphenylamine Derivatives” (PLoS ONE, 2007).
# Sequences of proteins named here, by UniProt entry; tags and fusion partners are left off. A change or cut given only in a name is not applied to a line headed by its entry. Residues count along the entry.
# UniProt P05979, 25-600 limits assumed: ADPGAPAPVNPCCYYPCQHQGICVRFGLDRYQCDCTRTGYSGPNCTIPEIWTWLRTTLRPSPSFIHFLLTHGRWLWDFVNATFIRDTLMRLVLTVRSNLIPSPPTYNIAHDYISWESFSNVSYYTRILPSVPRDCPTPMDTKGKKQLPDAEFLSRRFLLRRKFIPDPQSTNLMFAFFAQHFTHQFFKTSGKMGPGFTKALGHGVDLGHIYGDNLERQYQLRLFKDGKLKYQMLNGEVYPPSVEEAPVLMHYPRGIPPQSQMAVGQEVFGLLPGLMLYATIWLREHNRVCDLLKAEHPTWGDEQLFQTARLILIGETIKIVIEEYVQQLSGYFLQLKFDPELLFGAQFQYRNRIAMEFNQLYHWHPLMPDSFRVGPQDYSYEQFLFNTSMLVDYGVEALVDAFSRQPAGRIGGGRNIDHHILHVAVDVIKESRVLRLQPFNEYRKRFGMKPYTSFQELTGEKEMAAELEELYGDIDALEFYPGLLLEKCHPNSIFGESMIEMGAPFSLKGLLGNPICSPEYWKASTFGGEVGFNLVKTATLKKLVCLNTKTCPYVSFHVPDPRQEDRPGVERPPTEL
# UniProt O43525, whole entry: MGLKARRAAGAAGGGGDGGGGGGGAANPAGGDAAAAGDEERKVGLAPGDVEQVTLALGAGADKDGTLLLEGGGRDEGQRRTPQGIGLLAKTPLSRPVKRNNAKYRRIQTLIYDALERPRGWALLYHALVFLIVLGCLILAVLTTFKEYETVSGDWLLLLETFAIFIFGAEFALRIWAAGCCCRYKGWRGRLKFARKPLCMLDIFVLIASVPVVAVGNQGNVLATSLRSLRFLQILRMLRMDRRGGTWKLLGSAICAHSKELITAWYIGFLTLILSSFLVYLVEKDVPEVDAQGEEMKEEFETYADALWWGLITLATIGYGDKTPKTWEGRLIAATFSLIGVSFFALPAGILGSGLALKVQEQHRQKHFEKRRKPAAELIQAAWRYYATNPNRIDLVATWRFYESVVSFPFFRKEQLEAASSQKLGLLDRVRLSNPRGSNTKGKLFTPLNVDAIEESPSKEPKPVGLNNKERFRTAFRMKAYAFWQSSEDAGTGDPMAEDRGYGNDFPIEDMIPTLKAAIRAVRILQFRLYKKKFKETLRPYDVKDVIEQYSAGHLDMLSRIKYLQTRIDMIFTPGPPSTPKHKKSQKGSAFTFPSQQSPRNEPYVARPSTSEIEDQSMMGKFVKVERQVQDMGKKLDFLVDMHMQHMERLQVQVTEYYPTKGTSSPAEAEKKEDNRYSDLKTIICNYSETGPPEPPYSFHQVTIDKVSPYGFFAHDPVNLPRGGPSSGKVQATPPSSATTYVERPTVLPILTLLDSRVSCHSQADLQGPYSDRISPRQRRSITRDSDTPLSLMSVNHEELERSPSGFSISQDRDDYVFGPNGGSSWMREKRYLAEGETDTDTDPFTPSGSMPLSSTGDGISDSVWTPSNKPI
# UniProt O43525, whole entry A315T: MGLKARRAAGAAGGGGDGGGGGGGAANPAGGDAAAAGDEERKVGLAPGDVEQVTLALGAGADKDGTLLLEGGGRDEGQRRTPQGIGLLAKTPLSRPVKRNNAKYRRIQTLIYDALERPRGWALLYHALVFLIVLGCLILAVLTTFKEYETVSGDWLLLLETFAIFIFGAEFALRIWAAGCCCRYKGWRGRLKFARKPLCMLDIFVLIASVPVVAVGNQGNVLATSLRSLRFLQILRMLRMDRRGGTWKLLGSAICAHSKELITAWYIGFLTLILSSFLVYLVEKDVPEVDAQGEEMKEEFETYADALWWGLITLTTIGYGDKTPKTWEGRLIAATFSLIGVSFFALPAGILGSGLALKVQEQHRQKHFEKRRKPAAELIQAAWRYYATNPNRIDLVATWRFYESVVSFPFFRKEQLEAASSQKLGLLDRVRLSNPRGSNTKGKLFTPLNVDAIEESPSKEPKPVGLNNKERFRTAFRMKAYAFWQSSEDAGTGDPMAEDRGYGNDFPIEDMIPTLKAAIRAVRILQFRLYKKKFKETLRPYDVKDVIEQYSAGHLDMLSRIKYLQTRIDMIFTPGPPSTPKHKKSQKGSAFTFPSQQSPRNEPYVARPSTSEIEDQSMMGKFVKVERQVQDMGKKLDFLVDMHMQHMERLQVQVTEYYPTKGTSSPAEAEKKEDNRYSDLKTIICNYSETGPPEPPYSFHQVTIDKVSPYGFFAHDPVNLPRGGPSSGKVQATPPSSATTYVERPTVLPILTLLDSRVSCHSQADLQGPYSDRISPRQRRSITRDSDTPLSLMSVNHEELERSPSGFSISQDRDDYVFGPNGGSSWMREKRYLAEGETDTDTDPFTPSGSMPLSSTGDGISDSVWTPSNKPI
# UniProt O43526, whole entry: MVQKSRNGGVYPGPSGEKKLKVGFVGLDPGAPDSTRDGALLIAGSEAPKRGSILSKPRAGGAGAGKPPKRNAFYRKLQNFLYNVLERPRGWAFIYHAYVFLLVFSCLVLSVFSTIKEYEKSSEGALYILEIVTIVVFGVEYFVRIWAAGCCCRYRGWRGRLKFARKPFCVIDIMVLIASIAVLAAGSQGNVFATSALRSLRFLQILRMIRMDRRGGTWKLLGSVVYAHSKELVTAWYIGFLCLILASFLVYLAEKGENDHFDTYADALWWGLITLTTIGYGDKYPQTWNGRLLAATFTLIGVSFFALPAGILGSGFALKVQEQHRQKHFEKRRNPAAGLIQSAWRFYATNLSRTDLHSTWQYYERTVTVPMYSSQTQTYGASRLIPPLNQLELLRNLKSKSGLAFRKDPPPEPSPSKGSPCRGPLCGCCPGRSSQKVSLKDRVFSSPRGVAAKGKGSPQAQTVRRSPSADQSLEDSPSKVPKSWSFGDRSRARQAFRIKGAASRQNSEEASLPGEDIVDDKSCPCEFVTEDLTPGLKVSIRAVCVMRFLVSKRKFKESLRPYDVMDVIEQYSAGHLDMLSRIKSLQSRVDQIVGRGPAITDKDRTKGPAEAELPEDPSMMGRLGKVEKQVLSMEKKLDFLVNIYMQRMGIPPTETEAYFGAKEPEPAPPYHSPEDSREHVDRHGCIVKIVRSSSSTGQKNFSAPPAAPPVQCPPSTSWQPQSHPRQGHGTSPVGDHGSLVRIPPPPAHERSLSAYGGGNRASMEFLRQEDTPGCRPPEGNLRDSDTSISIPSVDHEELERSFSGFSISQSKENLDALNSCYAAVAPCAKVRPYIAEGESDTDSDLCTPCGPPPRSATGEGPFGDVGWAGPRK
# UniProt Q14721, whole entry: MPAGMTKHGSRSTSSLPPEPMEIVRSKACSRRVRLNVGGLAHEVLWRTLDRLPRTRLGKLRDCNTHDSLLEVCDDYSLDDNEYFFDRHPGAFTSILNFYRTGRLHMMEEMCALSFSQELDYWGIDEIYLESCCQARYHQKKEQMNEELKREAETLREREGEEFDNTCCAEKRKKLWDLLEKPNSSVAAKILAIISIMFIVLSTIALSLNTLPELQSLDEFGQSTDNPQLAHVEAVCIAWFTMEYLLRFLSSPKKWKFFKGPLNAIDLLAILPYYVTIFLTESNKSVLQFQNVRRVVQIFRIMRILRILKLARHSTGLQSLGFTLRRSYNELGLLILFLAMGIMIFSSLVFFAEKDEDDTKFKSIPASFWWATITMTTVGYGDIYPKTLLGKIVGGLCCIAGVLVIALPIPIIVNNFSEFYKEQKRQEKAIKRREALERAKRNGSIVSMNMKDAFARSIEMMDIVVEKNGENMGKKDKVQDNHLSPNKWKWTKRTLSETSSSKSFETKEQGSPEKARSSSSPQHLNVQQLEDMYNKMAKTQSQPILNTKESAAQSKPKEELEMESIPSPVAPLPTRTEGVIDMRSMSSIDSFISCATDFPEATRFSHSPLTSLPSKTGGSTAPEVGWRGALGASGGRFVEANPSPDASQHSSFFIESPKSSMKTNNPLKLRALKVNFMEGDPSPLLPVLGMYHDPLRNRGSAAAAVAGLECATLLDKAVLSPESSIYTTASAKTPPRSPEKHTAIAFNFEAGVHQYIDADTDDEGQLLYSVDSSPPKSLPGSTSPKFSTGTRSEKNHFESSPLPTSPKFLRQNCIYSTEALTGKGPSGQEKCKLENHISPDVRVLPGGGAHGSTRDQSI
# UniProt Q9UK17, whole entry: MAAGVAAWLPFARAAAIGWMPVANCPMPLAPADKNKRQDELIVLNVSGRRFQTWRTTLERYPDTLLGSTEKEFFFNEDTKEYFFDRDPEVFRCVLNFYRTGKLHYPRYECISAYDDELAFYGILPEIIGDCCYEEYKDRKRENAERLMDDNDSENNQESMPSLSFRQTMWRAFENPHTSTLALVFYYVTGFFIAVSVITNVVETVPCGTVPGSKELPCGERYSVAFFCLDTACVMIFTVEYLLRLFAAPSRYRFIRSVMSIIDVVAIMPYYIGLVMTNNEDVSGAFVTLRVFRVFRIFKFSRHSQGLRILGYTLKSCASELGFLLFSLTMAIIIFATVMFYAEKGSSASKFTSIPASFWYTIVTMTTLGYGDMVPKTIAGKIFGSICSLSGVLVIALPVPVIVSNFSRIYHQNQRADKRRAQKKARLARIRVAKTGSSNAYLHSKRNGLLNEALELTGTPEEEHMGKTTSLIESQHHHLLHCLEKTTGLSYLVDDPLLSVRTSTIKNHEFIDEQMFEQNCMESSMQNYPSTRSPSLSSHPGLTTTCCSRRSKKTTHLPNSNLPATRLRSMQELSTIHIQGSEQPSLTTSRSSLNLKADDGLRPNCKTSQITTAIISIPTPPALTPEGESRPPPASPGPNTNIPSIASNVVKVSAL
# UniProt P56696, whole entry: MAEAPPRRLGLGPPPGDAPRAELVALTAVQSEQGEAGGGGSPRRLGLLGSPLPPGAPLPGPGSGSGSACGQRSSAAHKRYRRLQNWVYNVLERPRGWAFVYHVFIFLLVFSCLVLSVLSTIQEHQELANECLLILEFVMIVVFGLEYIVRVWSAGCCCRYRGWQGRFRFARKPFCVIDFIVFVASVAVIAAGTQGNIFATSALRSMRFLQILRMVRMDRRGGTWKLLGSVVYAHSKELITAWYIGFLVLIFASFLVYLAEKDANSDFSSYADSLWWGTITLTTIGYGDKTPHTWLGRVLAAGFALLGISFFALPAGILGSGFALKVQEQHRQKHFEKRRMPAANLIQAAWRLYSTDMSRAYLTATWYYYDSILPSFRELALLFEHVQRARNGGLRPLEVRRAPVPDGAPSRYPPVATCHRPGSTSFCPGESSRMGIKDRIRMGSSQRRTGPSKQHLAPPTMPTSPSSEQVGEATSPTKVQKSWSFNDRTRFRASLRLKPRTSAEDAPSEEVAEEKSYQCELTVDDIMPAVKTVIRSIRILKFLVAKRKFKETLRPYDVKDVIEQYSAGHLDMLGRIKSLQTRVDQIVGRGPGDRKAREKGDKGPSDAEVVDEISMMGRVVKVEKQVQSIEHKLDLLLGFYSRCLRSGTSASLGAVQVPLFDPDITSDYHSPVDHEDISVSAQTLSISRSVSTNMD
# UniProt Q12809, whole entry: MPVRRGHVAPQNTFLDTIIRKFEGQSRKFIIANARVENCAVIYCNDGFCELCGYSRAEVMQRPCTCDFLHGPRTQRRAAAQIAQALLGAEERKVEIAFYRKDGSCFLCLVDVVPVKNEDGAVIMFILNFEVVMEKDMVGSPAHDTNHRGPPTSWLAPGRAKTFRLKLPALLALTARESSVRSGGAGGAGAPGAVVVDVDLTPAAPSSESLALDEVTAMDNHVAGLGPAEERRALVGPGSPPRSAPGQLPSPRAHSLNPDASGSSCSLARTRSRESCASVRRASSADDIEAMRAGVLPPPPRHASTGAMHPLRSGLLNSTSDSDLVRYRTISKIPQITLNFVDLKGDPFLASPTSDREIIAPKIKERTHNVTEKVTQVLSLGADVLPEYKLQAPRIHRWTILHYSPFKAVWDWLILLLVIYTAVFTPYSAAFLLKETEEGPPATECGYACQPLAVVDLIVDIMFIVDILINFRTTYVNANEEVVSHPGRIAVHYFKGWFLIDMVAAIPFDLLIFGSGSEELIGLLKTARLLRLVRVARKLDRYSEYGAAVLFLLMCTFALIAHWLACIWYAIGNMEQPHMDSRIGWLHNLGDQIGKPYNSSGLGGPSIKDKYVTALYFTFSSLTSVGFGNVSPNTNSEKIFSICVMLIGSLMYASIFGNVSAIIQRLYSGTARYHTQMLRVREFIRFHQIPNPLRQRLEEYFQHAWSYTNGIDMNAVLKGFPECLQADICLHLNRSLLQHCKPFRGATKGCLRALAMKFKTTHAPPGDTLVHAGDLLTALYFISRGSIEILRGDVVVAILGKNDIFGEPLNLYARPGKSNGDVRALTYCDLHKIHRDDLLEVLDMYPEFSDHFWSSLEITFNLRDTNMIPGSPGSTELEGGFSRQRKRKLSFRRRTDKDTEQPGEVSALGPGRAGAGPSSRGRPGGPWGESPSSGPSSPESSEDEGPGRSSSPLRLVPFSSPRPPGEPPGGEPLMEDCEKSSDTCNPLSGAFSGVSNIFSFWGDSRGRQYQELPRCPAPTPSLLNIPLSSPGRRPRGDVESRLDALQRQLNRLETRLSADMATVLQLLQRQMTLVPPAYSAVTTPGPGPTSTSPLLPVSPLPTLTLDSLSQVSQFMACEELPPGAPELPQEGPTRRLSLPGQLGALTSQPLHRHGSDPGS
# Like-named read-outs stand apart in the source and are kept apart here.
# How the values were obtained:
# [1] = tested on: COX enzymes (CT26 mouse colon adenocarcinoma cells); test: COX inhibition, PGE2 production in CT26 cells
# [2] = tested on: COX enzymes (D122 mouse Lewis lung carcinoma cells); test: COX inhibition, PGE2 production in D122 cells
# [3] = target: purified ovine COX-1 (Ovis aries, UniProt P05979); test: COX inhibitor screening assay, purified COX-1; assay type: biochemical; conditions: 1 µM, n = 3
# [4] = target: human recombinant COX-2 (Homo sapiens, UniProt P35354); test: COX inhibitor screening assay, recombinant COX-2; assay type: biochemical; conditions: 1 µM, n = 3
# [5] = target: Kv7.2/3 K+ channels (M-channels) (Homo sapiens, UniProt O43525+O43526); test: Whole-cell patch-clamp of recombinant Kv7.2/3 channels in CHO cells; assay type: cell-based
# [6] = tested on: rat DRG neurons; test: Current-clamp recording of cultured DRG neurons; conditions: for rheobase current to generate a single spike, DRG neurons: 2 ms injection
# [7] = tested on: primary hippocampal neurons (glutamate and GABA release); test: Spontaneous and miniature post-synaptic currents in cultured hippocampal neurons; conditions: 25 µM; not shown
# [8] = target: Kv 2.1 (Homo sapiens, UniProt Q14721); test: Kv channel specificity, Xenopus oocytes; conditions: 50 µM
# [9] = target: Kv 4.3 (Homo sapiens, UniProt Q9UK17); test: Kv channel specificity, Xenopus oocytes; conditions: 50 µM
# [10] = target: Kv 7.1 (Homo sapiens, UniProt P51787); test: Kv channel specificity, Xenopus oocytes
# [11] = target: Kv 7.4 (Homo sapiens, UniProt P56696); test: Kv channel specificity, Xenopus oocytes
# [12] = target: Kv11.1 or hERG (Homo sapiens, UniProt Q12809); test: Kv channel specificity, Xenopus oocytes; conditions: 50 µM
# [13] = target: Kv7.2 (Homo sapiens, UniProt O43526); test: Kv channel specificity, Xenopus oocytes
# [14] = target: Kv7.3 mutant A315T (Homo sapiens, UniProt O43525, A315T); test: Kv7.3 mutant A315T activation
# [15] = read-out: COX inhibition (IC50, µM) CT26, PGE2 production, CT26 cells, average of two experiments in triplicate
# [16] = read-out: COX inhibition (IC50, µM) D122, average of two experiments in triplicate
structure (smiles),measurement,setting,value
Cc1cccc(Nc2ccccc2C(=O)NCCOCCO)c1C,IC50,[1]; [15],20 µM
same,IC50,[2]; [16],5 µM
O=C(Cc1ccccc1Nc1c(Cl)cccc1Cl)OCCOCCO,IC50,[1]; [15],0.015 µM
same,IC50,[2]; [16],0.003 µM
same,inhibition of the purified ovine COX-1 enzyme,[3],58±1%
same,inhibition of the human recombinant COX-2 enzyme,[4],85±1%
O=C(NCCOCCO)c1ccccc1Nc1cccc(C(F)(F)F)c1,IC50,[1]; [15],20 µM
same,IC50,[2]; [16],50 µM
same,M-channels (Kv7.2/Kv7.3) effect (opener / blocker / inactive),[5]; Kv7.2 and Kv7.3 coexpressed in CHO cells,opener
O=C(Cc1cc([N+](=O)[O-])cc([N+](=O)[O-])c1Nc1c(Cl)cc([N+](=O)[O-])cc1Cl)NCCO,IC50,[1]; [15],> 50 µM
same,IC50,[2]; [16],> 50 µM
same,left-shift of Kv7.2/3 activation curve,[5]; 10 µM,−13 mV
same,fold increase in Kv7.2/3 current amplitude,"[5]; 25 µM, at −50 mV, n = 5",9.4±1.2 fold
same,left-shift of Kv7.2/3 activation curve,[5]; 100 µM,−31 mV
same,"hyperpolarization of resting membrane potential, DRG neurons",[6]; 25 µM,−9.0±1.9 mV
same,resting membrane potential of DRG neurons after exposure,[6]; 25 µM,−65.0±3.4 mV
same,"rheobase current to generate a single spike, DRG neurons",[6]; 25 µM,300±55 pA
same,"number of evoked action potentials, DRG neurons","[6]; 25 µM, depolarizing current for 400 ms",0.9±0.1
same,effect on amplitude of mEPSCs and mIPSCs,[7],did not affect
same,effect on current amplitude of Kv2.1,[8],did not affect
same,effect on current amplitude of Kv4.3,[9],did not affect
same,Fold current amplitude,"[9]; +30 mV, Xenopus oocytes",1.0±0.07 fold
same,opener activity on Kv7.1,[10],not
same,opener activity on Kv7.4,[11],not
same,effect on current amplitude of Kv11.1 (hERG),[12],did not affect
same,Fold current amplitude,"[12]; −10 mV, Xenopus oocytes",0.9±0.08 fold
same,opener activity on Kv7.2,[13],opener
same,activation of Kv7.3 mutant A315T,[14],activate
O=C(Cc1ccccc1Nc1c(Cl)cccc1Cl)NCCOCCO,IC50,[1]; [15],40 µM
same,IC50,"[1]; read-out: COX inhibition IC50, in CT26 and D122 cells",> 50 µM
same,IC50,[2]; [16],30 µM
same,EC50,"[5]; read-out: M-channel opener potency EC50, concentration-dependent left-shift ΔV50, sigmoidal fit",7 µM
NCCOCCOC(=O)Cc1ccccc1Nc1c(Cl)cccc1Cl,IC50,"[1]; read-out: COX inhibition (IC50, µM) CT26, PGE2 production, CT26 cells, average of two experiments in triplicate, tested form: HCl",0.001 µM
same,IC50,"[2]; read-out: COX inhibition (IC50, µM) D122, average of two experiments in triplicate, tested form: HCl",0.01 µM
same,inhibition of the purified ovine COX-1 enzyme,[3]; tested form: HCl,59±1%
same,inhibition of the human recombinant COX-2 enzyme,[4]; tested form: HCl,83±1%
same,depolarization of DRG membrane potential (ΔV),"[6]; 1 µM, within 2 min, tested form: HCl",+7±1 mV
same,"rheobase current to generate a single spike, DRG neurons","[6]; 1 µM, n = 6, tested form: HCl",347±44 pA
same,"decrease in rheobase current, DRG neurons","[6]; 1 µM, tested form: HCl",about 300 pA
same,"number of evoked spikes, DRG neurons","[6]; 1 µM, ∼10–20 pA for 400 ms, n = 5, tested form: HCl",12±2
